Data from patent US20250114351A1, “5-HT2C RECEPTOR MODULATING AGENTS FOR THE TREATMENT OF NEURODEGENERATIVE, MENTAL, COGNITIVE AND AUTOIMMUNE CNS DISORDERS” (priority 2022, published 2025).

Key:
[1] = tested on: CD45^high cells in brain compartment; test: CD45^high cells in brain compartment of socially isolated (SI) mice, FACS; assay type: in vivo; details: i.p. once a day for 14 days, FLX 10 mg/kg, relative to control group-housed mice (1±0.07), SI saline 0.6±0.1, mean±SEM
Procedure: Mice: Adult (8-12 weeks of age; 20-25 g) males and females, SERT-Cre mice (B6.FVB(Cg)-Tg(Slc6a4-cre)ET33Gsat/Mmucd, (MMRRC, stock #031028-UCD), were used for the chemogenetic experiments. Adult C57Bl/6JOlaHsd mice (Envigo) and BALB/cOlaHsd (Envigo) were used for the characterization of the immune cells in the pineal gland, agonist, and social isolation experiments. Mice were maintained under specific-pathogen-free (SPF) conditions on a 12 h light:12 h dark cycle (lights on at 07:00) with food and water ad libitum. All experiments were performed in accordance with the National Institutes of Health Guidelines for the Care and Use of Laboratory Animals (Garber et al., 2011). All procedures and protocols were approved by the Technion Administrative Panel of Laboratory Animal Care. Throughout the experiments, mice were randomly assigned to experimental groups.
Flow cytometry and CyTOF mass cytometer: Mice were euthanized and transcardially perfused with 20 mL PBS (without Ca^2+/Mg^2+). The brains were separated from the meninges and dissected. […]
For viability staining, cells (10^6) were washed once with PBS, resuspended in Zombie NIR™ dye solution (1:1000, Biolegend, 423106) and incubated in the dark for 15 min at RT. […] Samples were analyzed using a CytoFLEX cell analyzer and FlowJo software. […]

[2] = tested on: immobility in tail suspension test; test: Tail suspension test (TST) in socially isolated (SI) mice; details: i.p. once a day for two weeks, relative to control group-housed mice (1±0.1), mean±SEM

SMILES: CNCCC(Oc1ccc(C(F)(F)F)cc1)c1ccccc1 (centres unmarked) [FLX]
- Fold increase of CD45^high cells in brain compartment [1]: 1±0.06 fold
- Fold change of immobility in tail suspension test (TST) [2]: 0.99±0.2 fold
